The target of one assay is Adenosine receptor A2a (Rattus norvegicus, UniProt P30543). Nature of the assay: Displacement of [3H]-CGS- 21680 binding to Adenosine A2A receptor in rat striatal membranes. The assay is classed as cell membranes, Membrane. In general terms: In a radioligand displacement assay an active substance lowers the binding of a labelled ligand.
Assay [1] deals with Voltage-gated L-type calcium channel (Rattus norvegicus, UniProt P22002+Q02485+P27732). Nature of the assay: Inhibition of [3H]-isradipine binding to L-type [Ca2+] channel of rat brain membranes. The assay is classed as cell membranes, Membrane.

By UniProt entry, the sequences of proteins in these tests, tags left out. Where a name states a change or a piece, a line headed by the entry shows the natural chain unless it says otherwise.
UniProt P30543, whole entry: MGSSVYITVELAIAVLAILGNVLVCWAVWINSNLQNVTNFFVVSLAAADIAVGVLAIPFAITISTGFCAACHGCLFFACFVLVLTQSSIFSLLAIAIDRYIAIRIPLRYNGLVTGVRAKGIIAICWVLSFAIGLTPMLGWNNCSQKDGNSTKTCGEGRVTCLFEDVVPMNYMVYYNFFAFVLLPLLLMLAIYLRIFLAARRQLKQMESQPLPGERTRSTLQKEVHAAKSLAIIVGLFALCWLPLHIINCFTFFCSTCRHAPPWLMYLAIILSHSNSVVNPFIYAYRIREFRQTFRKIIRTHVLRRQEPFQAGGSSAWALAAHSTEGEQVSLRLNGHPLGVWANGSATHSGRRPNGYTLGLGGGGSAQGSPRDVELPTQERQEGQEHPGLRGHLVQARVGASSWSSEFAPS
UniProt P22002: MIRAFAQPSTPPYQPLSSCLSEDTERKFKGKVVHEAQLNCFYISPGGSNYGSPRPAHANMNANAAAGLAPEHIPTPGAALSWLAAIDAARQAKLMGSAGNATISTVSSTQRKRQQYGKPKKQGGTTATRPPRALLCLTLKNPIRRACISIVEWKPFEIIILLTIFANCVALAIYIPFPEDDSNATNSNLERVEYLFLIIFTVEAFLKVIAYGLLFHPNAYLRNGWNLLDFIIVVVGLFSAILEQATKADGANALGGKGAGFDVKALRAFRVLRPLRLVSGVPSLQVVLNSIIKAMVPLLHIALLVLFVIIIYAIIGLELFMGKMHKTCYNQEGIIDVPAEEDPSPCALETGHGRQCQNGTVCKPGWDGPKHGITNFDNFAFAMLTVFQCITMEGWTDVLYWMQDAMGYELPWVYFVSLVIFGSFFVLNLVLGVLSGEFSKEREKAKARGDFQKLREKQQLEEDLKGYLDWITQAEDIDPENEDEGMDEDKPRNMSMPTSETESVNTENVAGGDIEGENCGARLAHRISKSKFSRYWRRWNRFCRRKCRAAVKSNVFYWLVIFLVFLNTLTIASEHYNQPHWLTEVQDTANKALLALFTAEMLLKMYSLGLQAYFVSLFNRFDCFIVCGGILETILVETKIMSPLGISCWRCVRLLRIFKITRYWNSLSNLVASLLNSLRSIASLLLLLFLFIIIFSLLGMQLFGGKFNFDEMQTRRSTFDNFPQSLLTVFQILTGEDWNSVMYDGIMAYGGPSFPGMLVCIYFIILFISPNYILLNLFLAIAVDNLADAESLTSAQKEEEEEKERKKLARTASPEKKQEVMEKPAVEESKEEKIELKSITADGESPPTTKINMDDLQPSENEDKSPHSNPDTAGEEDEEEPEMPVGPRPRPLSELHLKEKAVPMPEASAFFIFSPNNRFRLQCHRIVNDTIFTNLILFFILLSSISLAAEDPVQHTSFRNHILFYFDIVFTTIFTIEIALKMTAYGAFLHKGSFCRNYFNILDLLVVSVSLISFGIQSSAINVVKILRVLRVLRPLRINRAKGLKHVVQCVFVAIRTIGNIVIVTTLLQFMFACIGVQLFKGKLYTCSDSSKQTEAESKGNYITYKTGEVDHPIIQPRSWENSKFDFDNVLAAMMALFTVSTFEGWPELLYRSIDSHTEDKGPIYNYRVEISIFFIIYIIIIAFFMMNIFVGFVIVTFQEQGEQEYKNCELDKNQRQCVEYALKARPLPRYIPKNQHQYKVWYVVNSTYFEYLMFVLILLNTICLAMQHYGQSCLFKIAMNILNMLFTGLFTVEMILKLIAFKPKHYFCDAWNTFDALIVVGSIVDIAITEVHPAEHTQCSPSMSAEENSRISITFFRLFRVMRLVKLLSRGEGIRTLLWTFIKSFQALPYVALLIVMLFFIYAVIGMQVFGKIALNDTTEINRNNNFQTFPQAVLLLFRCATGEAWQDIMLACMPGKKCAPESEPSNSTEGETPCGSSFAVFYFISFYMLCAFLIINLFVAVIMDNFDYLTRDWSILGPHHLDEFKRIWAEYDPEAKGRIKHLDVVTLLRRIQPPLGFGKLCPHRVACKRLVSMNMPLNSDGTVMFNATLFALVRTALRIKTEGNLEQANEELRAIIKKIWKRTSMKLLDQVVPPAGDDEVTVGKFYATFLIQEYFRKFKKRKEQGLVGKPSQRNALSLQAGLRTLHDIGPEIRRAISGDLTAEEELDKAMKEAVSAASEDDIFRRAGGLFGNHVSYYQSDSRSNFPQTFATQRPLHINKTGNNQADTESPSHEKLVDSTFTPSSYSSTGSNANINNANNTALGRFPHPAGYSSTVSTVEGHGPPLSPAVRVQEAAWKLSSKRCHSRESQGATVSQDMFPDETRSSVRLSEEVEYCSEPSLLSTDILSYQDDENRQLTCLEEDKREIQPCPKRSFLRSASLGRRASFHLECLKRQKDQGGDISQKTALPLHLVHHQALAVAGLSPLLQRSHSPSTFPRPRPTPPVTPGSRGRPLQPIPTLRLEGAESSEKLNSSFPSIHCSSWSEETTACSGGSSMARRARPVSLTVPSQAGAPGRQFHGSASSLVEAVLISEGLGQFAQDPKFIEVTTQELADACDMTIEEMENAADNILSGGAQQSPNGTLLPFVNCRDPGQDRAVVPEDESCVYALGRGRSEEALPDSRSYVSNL
UniProt P27732: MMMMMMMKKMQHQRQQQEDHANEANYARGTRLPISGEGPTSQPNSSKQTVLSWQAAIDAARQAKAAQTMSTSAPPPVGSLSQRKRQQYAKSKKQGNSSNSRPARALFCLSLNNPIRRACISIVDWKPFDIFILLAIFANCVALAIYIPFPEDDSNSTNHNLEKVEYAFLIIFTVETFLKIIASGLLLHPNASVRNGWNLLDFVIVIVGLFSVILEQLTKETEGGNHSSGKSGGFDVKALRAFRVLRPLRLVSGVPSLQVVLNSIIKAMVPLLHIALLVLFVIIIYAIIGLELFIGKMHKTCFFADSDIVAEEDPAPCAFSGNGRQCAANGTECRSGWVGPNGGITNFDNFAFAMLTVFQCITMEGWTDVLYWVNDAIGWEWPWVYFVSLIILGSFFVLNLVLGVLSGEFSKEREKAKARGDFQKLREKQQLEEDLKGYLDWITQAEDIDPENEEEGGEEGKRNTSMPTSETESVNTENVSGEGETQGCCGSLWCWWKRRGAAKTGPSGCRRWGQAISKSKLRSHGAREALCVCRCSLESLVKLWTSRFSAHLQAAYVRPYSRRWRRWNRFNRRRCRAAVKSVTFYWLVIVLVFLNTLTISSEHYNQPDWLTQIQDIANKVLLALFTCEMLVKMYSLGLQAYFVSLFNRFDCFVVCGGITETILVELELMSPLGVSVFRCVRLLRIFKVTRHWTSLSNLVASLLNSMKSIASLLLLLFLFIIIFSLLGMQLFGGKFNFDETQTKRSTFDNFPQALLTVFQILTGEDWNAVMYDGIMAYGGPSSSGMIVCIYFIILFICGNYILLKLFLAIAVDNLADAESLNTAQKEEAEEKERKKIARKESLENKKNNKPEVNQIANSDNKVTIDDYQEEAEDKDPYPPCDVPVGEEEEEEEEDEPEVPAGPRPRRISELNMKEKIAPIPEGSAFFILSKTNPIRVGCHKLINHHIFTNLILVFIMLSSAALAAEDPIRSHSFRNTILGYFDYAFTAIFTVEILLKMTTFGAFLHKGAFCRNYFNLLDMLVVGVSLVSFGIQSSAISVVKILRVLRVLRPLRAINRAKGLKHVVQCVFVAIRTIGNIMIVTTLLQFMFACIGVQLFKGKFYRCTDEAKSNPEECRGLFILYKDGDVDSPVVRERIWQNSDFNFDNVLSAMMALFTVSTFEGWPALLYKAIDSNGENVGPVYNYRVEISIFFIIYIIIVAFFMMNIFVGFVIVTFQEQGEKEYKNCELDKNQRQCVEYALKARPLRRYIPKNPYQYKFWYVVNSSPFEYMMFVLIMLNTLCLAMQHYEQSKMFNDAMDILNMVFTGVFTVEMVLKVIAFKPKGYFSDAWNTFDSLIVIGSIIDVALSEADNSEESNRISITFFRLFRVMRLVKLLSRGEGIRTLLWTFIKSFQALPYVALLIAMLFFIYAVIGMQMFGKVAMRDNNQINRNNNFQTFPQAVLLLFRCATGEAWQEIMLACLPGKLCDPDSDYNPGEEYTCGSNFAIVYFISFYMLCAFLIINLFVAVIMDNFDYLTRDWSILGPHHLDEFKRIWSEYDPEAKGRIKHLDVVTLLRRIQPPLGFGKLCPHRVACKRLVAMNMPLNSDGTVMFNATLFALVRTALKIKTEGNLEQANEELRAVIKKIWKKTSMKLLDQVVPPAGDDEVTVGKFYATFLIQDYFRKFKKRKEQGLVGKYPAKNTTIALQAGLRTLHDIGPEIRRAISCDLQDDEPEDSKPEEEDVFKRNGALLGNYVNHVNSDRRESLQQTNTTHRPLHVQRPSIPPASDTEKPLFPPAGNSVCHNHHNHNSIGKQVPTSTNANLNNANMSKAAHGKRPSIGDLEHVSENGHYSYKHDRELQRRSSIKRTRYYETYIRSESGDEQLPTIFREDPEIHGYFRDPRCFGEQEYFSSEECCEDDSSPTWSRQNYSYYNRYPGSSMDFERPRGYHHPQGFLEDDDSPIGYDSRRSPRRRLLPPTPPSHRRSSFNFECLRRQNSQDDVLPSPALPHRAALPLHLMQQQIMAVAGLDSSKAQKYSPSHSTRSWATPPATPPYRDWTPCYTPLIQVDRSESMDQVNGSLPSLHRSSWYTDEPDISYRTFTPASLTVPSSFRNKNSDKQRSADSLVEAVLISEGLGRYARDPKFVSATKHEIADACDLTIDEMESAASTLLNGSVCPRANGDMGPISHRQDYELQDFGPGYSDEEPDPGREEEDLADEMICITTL

Structures are written as SMILES.

In the case of `CO/C(O)=C1\C(C)=NC(C)=C([N+](=O)[O-])[C@@H]1c1ccccc1C(F)(F)F`, the Ki (commonly a dissociation constant, usually derived from enzyme kinetics or from competition with a known ligand) at Adenosine receptor A2a turned out to be 35.1 µM.

For `CO/C(O)=C1\C(C)=NC(C)=C([N+](=O)[O-])[C@H]1c1ccccc1C(F)(F)F`, the Ki at Adenosine receptor A2a stood at 86.3 µM. Take `COC(=O)C1=C(C)NC(C)=C(C(=O)OCCCN2CCC(c3ccccc3)(c3ccccc3)CC2)[C@@H]1c1cccc([N+](=O)[O-])c1` [DEXNIGULDIPINE]: the Ki in assay [1] was found to be 0.0597 µM.

Values taken from ChEMBL document CHEMBL1129250, “Interaction of 1,4-dihydropyridine and pyridine derivatives with adenosine receptors: selectivity for A3 receptors” (J Med Chem, 1996).
